The values below come from patent publication US12516292B2, “Methods of producing modified natural killer cells and methods of use” (The United States of America, as represented by the …, priority 2016, dated 2026).

In data set [1] the test system is primary human NK cells. The data set is described as follows: Viability of NK cultures before and after transduction (trypan blue / flow cytometry). Type of data set: cell-based. The conditions noted are these: 1-3 days of priming with 500 IU/ml IL-2 (FIG. 14).
Data set [2] relates to primary human NK cells. The data set is described as follows: Lentiviral transduction of primary human NK cells, eGFP/GFP expression by FACS. It is filed as cell-based.

The substance “IL-2: recombinant human IL-2 (Roche), cytokine used to prime NK cells” returned a cell viability with primary human NK cells [1] of about 100%. Also, the “transduction efficiency versus days of priming” value in the data set with primary human NK cells [2] (500 IU/ml IL-2 for 1-6 days prior to transduction, GFP transgene (FIG. 14)) was “increased with 1-4 days of priming, then decreased slightly at days 5 and 6”. The transduction efficiency with primary human NK cells [2] (priming with 500 IU/ml IL-2 for two or more days prior to transduction, irradiated LCLs 10:1 added two days post-transduction (FIG. 4)) is at least 25%.
